This passage reports IC50 results from article PMC10969092, “Characterization of Lysophospholipase D Activity in Mammalian Cell Membranes” (Cells, 2024).

The chains behind the UniProt entries cited, without tags or fusion partners. Where a name states a change or a piece, a line headed by the entry shows the natural chain unless it says otherwise.
UniProt P70498: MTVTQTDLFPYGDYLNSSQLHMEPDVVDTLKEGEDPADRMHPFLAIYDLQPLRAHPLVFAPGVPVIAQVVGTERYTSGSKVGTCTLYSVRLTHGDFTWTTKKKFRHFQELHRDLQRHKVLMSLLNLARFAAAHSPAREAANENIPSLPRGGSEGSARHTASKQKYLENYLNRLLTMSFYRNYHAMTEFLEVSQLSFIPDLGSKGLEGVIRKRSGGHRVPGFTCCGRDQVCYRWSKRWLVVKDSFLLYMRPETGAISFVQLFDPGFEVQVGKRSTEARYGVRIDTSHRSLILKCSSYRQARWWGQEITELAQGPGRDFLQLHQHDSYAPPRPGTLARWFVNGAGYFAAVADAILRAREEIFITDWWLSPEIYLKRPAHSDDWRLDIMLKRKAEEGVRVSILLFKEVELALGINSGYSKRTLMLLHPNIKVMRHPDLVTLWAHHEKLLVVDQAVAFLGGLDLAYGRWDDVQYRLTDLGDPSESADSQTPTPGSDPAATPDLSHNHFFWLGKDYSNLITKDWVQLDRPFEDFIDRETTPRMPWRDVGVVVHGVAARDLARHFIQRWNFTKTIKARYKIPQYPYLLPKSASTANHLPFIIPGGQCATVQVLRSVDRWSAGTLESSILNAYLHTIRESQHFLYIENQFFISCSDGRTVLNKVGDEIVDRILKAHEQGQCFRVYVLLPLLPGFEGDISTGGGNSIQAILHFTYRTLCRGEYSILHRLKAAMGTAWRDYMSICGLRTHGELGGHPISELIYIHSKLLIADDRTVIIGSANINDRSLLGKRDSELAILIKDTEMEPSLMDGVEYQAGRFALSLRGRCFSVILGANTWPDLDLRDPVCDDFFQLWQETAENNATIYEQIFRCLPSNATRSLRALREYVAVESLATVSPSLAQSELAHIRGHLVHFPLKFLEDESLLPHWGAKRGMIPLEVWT

The target of this assay is T1, PLD (Rattus norvegicus, UniProt P70498).
T1 construct: PC12K membranes were incubated with either B-PC (for PLD assay) or commercial B-lyso-PC (for lyso-PLD assay); endogenous in cells; host or cells: PC12K and A7r5 cell membranes (100,000 x g pellet)
The assay can be described thus: In vitro fluorescent PLD assay in cell membranes (B-PC substrate with butanol, B-PBt product). In kind it is biochemical. The note with it: mammalian (PC12K) membranes, B-PBt quantified.

As usually defined, the IC50 is the concentration at which inhibition is half-maximal. Low values mean inhibition by little substance, high ones a need for much substance.

On to sodium orthovanadate, for which the IC50 is approximately 30 µM.
